Source: patent US6340696B1, “Viral treatment” (The Procter & Gamble Company, priority 1999, dated 2002)

Assay: Oral LD50 in mice

## (5-Phenyl-1,2,4-thiadiazol)-3-yl thiourea [Compound]
  oral LD50: greater than 6000 mg/kg
